## Cyclic peptide permeability, from CycPeptMPDB

Source: CycPeptMPDB (Li et al. 2023), which took these values from Townsend et al. 2020, doi:10.26434/chemrxiv.13335941.v1.

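The data file gives no further conditions (lipid, pH, time, direction or concentration), and values from different papers need not be comparable. Other peptides of the study may be missing here. Peptides that the database sets to -10, its floor, are left out.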

PAMPA measures passive passage through an artificial lipid membrane. Permeability is given as log10 of P in cm/s; higher (less negative) is more permeable.

| structure (SMILES) | PAMPA (log10 cm/s) |
|---|---|
| CC(C)C[C@@H]1C(=O)N[C@@H](Cc2ccccc2)C(=O)N2CCC[C@H]2C(=O)N[C@H](C)C(=O)N(Cc2ccccc2)CC(=O)N(Cc2ccccc2)CC(=O)N2CCC[C@H]2C(=O)N1C | -6.12 |
| CC(C)C[C@H]1C(=O)N(C)[C@@H](CC(C)C)C(=O)N2CCC[C@@H]2C(=O)N(Cc2ccccc2)CC(=O)N[C@@H](Cc2ccccc2)C(=O)N2CCC[C@H]2C(=O)N[C@@H](Cc2ccccc2)CC(=O)N1C | -5.75 |
| CC(C)C[C@H]1C(=O)N(Cc2ccccc2)CC(=O)N2CCC[C@H]2C(=O)N(Cc2ccccc2)CC(=O)N[C@@H](Cc2ccccc2)C(=O)N[C@H](C)C(=O)N1C | -5.34 |
| CC(C)C[C@@H]1C(=O)N[C@@H](Cc2ccccc2)C(=O)N2CCC[C@H]2C(=O)N[C@H](C)C(=O)N(Cc2ccccc2)CC(=O)N(C)[C@@H](CC(C)C)C(=O)N2CCC[C@H]2C(=O)N1C | -5.24 |
| CC(C)C[C@H]1NC(=O)CN(Cc2ccccc2)C(=O)[C@H](C)NC(=O)[C@@H]2CCCN2C(=O)[C@H](Cc2ccccc2)NC(=O)[C@H](CC(C)C)N(C)C(=O)[C@@H]2CCCN2C1=O | -6.27 |
| CCCN1CC(=O)N(Cc2ccccc2)CC(=O)N(Cc2ccccc2)CC(=O)N2CCC[C@H]2C(=O)N[C@H](CC(C)C)C(=O)N[C@@H](Cc2ccccc2)C(=O)N2CCC[C@H]2C1=O | -6.15 |
| CC(C)C[C@@H]1NC(=O)[C@@H]2CCCN2C(=O)CN(Cc2ccccc2)C(=O)CN(Cc2ccccc2)C(=O)C[C@H](Cc2ccccc2)NC(=O)[C@@H]2CCCN2C(=O)[C@H](Cc2ccccc2)NC1=O | -5.98 |
| CCCN1CC(=O)N[C@H](CC(C)C)C(=O)N[C@@H](Cc2ccccc2)CC(=O)N2CCC[C@H]2C(=O)N[C@@H](CC(C)C)C(=O)N[C@@H](Cc2ccccc2)C1=O | -5.55 |
| CC(C)C[C@H]1NC(=O)[C@H]2CCCN2C(=O)C[C@H](Cc2ccccc2)NC(=O)CN(Cc2ccccc2)C(=O)[C@H](C)NC(=O)[C@H](Cc2ccccc2)NC1=O | -6.34 |
| CC(C)C[C@H]1NC(=O)C[C@H](Cc2ccccc2)NC(=O)[C@H](Cc2ccccc2)NC(=O)CN(Cc2ccccc2)C(=O)[C@H]2CCCN2C(=O)[C@H](CC(C)C)N(C)C1=O | -5.13 |

Excerpt, the opening 2 entries:

structure (SMILES)	PAMPA (log10 cm/s)
CC(C)C[C@@H]1C(=O)N[C@@H](Cc2ccccc2)C(=O)N2CCC[C@H]2C(=O)N[C@H](C)C(=O)N(Cc2ccccc2)CC(=O)N(Cc2ccccc2)CC(=O)N2CCC[C@H]2C(=O)N1C	-6.12
CC(C)C[C@H]1C(=O)N(C)[C@@H](CC(C)C)C(=O)N2CCC[C@@H]2C(=O)N(Cc2ccccc2)CC(=O)N[C@@H](Cc2ccccc2)C(=O)N2CCC[C@H]2C(=O)N[C@@H](Cc2ccccc2)CC(=O)N1C	-5.75